This is an account of results in article PMC12122834 (Nature Communications, 2024).

In test [1] the target is T1, DinG helicase (E. coli, UniProt P27296 1-716).
T1 sequence (looked up): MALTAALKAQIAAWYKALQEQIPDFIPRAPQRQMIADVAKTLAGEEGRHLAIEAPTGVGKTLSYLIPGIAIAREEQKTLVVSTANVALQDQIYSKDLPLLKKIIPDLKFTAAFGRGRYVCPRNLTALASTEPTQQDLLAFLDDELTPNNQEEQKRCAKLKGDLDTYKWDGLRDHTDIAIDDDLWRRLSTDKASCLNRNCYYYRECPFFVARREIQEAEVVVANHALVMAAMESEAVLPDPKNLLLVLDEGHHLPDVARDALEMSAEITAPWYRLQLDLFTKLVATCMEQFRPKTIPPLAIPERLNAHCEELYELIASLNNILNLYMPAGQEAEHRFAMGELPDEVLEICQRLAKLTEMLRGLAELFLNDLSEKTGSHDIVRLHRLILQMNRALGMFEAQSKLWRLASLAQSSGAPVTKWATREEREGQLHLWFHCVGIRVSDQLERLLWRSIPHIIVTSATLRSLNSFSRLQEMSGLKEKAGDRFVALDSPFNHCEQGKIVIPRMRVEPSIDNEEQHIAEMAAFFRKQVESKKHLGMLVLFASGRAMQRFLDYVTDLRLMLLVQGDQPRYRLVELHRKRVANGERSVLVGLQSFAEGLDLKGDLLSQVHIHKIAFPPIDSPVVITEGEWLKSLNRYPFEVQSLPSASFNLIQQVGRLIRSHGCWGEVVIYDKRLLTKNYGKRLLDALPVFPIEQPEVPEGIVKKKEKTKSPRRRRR
The experiment in a line: native gel or EMSA.

Test [2] addresses T2, YoaA-χ helicase complex (wild type) (E. coli, UniProt P76257 1-636; P28905 1-147).
T2 sequence (looked up) 1: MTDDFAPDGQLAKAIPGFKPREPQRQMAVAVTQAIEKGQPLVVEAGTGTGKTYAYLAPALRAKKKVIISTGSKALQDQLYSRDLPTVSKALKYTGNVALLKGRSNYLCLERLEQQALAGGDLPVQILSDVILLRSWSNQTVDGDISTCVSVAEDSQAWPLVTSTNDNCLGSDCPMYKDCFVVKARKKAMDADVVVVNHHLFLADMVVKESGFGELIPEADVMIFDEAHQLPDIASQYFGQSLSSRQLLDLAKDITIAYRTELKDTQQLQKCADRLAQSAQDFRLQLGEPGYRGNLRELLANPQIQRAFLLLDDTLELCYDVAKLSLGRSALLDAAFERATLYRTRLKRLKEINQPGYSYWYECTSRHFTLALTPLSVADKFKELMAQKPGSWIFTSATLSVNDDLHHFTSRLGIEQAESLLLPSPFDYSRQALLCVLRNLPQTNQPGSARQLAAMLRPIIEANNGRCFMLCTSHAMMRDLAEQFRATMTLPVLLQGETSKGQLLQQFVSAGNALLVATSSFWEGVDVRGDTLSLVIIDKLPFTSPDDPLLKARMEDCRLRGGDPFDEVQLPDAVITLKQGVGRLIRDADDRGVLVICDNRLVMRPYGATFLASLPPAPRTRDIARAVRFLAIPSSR
T2 sequence (looked up) 2: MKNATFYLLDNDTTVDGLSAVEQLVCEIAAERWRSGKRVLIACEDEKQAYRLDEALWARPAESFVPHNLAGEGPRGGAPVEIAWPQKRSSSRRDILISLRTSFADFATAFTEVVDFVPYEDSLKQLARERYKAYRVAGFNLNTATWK
The experiment in a line: native gel or EMSA.

B1: Single-stranded DNA binding protein (SSB), wild type (natural protein, E. coli, UniProt P0AGE0 1-178, looked up)
chain: MASRGVNKVILVGNLGQDPEVRYMPNGGAVANITLATSESWRDKATGEMKEQTEWHRVVLFGKLAEVASEYLRKGSQVYIEGQLRTRKWTDQSGQDRYTTEVVVNVGGTMQMLGGRQGGGAPAGGNIGGGQPQGGWGQPQQPQGGNQFSGGAQSRPQQSAPAAPSNEPPMDFDDDIPF
Take B1: the binding result in test [1] and in test [2] was “binds” throughout.
